# Measured values as given in patent US4668677A, “4-phenylphthalazine derivatives, their preparation and their use as pharmaceuticals” (Mitsubishi Chemical Industries Limited, priority 1984, dated 1987).
# Test: in vivo
# Conditions: rat, po, rats
compound,measurement,value
CCCNc1nnc(-c2ccccc2)c2ccccc12 [compound 1],LD50,522 mg/kg
